Among the data in patent US12576087B2, “Aryloxypiperidine pyrazole compounds as indoleamine 2,3-dioxygenase inhibitors” (Merck Sharp & Dohme LLC, priority 2018, dated 2026) are EC50 values, retold here.

Sequences of proteins named here, by UniProt entry; tags and fusion partners are left off.
UniProt P14902, whole entry: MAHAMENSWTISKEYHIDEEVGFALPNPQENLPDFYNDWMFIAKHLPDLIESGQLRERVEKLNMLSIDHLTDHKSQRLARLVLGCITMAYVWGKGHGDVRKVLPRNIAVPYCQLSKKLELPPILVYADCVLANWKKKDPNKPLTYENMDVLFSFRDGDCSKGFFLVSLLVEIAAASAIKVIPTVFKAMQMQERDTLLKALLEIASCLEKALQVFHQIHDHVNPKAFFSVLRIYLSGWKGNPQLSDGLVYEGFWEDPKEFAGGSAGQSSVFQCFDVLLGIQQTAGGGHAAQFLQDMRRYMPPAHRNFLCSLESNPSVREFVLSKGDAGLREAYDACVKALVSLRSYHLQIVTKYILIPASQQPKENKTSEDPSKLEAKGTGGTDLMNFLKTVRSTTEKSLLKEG

Molecules are shown by their SMILES.

This experiment addresses IDO1 (Homo sapiens, UniProt P14902). The experiment in a line: IDO1 Cellular Assay in HeLa Cells Stimulated with IFNγ. It is filed as cell-based. Conditions: HeLa cells stimulated with IFNγ 100 ng/mL, about 48 hours.

A word on the EC50: it is the concentration that produces a half-maximal response. In turn, `C[C@@H]1CN(C(=O)c2nn(CC(=O)N3CCC(Oc4cc(F)cc(F)c4F)CC3)c3c2CCC3)C[C@H](C)O1` [Example 144, 2-{3-[(2R,6S)-2,6-dimethylmorpholine-4-carbonyl]-5,6-dihydrocyclopenta[c]pyrazol-1(4H)-yl}-1-[4-(2,3,5-trifluorophenoxy)piperidin-1-yl]ethan-1-one] displayed an EC50 of 15.4 nM.
Regarding `COC(=O)c1nn(CC(=O)N2CCC(Oc3ccccc3C)CC2)c2c1CCCCC2` [Example 50, methyl 1-(2-oxo-2-(4-(o-tolyloxy)piperidin-1-yl)ethyl)-1,4,5,6,7,8-hexahydrocyclohepta[c]pyrazole-3-carboxylate], the EC50 was 173 nM.
For `C[C@@H]1CN(C(=O)c2nn(CC(=O)N3CCC(Oc4ccc5ccncc5c4)CC3)c3c2CCC3)C[C@H](C)O1` [Example 164, 2-{3-[(2R,6S)-2,6-dimethylmorpholine-4-carbonyl]-5,6-dihydrocyclopenta[c]pyrazol-1(4H)-yl}-1-{4-[(isoquinolin-7-yl)oxy]piperidin-1-yl}ethan-1-one] the value was 370 nM; for `Cc1ccc(F)c(OC2CCN(C(=O)Cn3nc(C(=O)N4C[C@@H](C)O[C@@H](C)C4)c4c3CCC4)CC2)c1` [Example 150, 2-{3-[(2R,6S)-2,6-dimethylmorpholine-4-carbonyl]-5,6-dihydrocyclopenta[c]pyrazol-1(4H)-yl}-1-[4-(2-fluoro-5-methylphenoxy)piperidin-1-yl]ethan-1-one], 28.9 nM.
Under `C[C@@H]1CN(C(=O)c2nn(CC(=O)N3CCC(Oc4cccc(Cl)c4)CC3)c3c2CCC3)C[C@H](C)O1` [Example 104, 1-[4-(3-chlorophenoxy)piperidin-1-yl]-2-{3-[(2R,6S)-2,6-dimethylmorpholine-4-carbonyl]-5,6-dihydrocyclopenta[c]pyrazol-1(4H)-yl}ethan-1-one] stands 26 nM.
With `C[C@@H]1C[C@H](Oc2ncccc2Cl)CCN1C(=O)Cn1nc(C(=O)N2CCC(OCCO)CC2)c2c1C[C@H]1C[C@@H]21` [Example 74, 1-((2R,4R)-4-((3-chloropyridin-2-yl)oxy)-2-methylpiperidin-1-yl)-2-((3bR,4aR)-3-(4-(2-hydroxyethoxy)piperidine-1-carbonyl)-3b,4,4a,5-tetrahydro-1H-cyclopropa[3,4]cyclopenta[1,2-c]pyrazol-1-yl)ethanone], the EC50 came out at 4.28 nM.
For `C[C@@H]1CN(C(=O)c2nn(CC(=O)N3CCC(Oc4cc(C(F)(F)F)ccc4Cl)CC3)c3c2CCC3)C[C@H](C)O1` [Example 160, 1-{4-[2-chloro-5-(trifluoromethyl)phenoxy]piperidin-1-yl}-2-{3-[(2R,6S)-2,6-dimethylmorpholine-4-carbonyl]-5,6-dihydrocyclopenta[c]pyrazol-1(4H)-yl}ethan-1-one] the value was 173 nM; for `Cc1ccccc1OC1CCN(C(=O)Cn2nc(C(=O)N3CCC(O)CC3)c3c2CCCC3)CC1` [Example 18, 2-(3-(4-hydroxypiperidine-1-carbonyl)-4,5,6,7-tetrahydro-1H-indazol-1-yl)-1-(4-(o-tolyloxy)piperidin-1-yl)ethanone], 1.19 nM; for `Cc1ccccc1OC1CCN(C(=O)Cn2nc(C(=O)N3CCC(O)CC3)c3c2CCC3)CC1` [Example 33, 2-(3-(4-hydroxypiperidine-1-carbonyl)-5,6-dihydrocyclopenta[c]pyrazol-1(4H)-yl)-1-(4-(o-tolyloxy)piperidin-1-yl)ethanone], 3.54 nM.
For `C[C@@H]1C[C@H](Oc2ccccc2Cl)CCN1C(=O)Cn1nc(C(=O)N2CC[C@@H](O)[C@@H](F)C2)c2c1C[C@H]1C[C@@H]21` [Example 52, 1-((2R,4R)-4-(2-chlorophenoxy)-2-methylpiperidin-1-yl)-2-((3bR,4aR)-3-((3S,4R)-3-fluoro-4-hydroxypiperidine-1-carbonyl)-3b,4,4a,5-tetrahydro-1H-cyclopropa[3,4]cyclopenta[1,2-c]pyrazol-1-yl)ethanone] the value was 1.7 nM; for `C[C@@H]1CN(C(=O)c2nn(CC(=O)N3CCC(Oc4ccccc4C#N)CC3)c3c2CCC3)C[C@H](C)O1` [Example 106, 2-{[1-({3-[(2R,6S)-2,6-dimethylmorpholine-4-carbonyl]-5,6-dihydrocyclopenta[c]pyrazol-1(4H)-yl}acetyl)piperidin-4-yl]oxy}benzonitrile], 44 nM.
Under `C[C@@H]1CN(C(=O)c2nn(CC(=O)N3CCC(OCc4ccccc4)C(F)(F)C3)c3c2CCC3)C[C@H](C)O1` (stereo partly drawn) [Example 120, 1-[4-(benzyloxy)-3,3-difluoropiperidin-1-yl]-2-{3-[(2R,6S)-2,6-dimethylmorpholine-4-carbonyl]-5,6-dihydrocyclopenta[c]pyrazol-1(4H)-yl}ethan-1-one] stands 270 nM; under `Cc1ccccc1OC1CCN(C(=O)Cn2nc(C(=O)N3CC[C@@H](O)[C@@H](F)C3)c3c2C[C@H]2C[C@@H]32)CC1` [Example 27, 2-((3bR,4aR)-3-((3S,4R)-3-fluoro-4-hydroxypiperidine-1-carbonyl)-3b,4,4a,5-tetrahydro-1H-cyclopropa[3,4]cyclopenta[1,2-c]pyrazol-1-yl)-1-(4-(o-tolyloxy)piperidin-1-yl)ethanone], 2.57 nM; under `C[C@@H]1CN(C(=O)c2nn(CC(=O)N3CCCC(Oc4ccccc4Cl)C3)c3c2CCC3)C[C@H](C)O1` (stereo partly drawn) [Example 126, 1-[3-(2-chlorophenoxy)piperidin-1-yl]-2-{3-[(2R,6S)-2,6-dimethylmorpholine-4-carbonyl]-5,6-dihydrocyclopenta[c]pyrazol-1(4H)-yl}ethan-1-one], 440 nM.
The compound `C[C@H]1C[C@@H](Oc2ncccc2Cl)CCN1C(=O)Cn1nc(C(=O)N2CCC(O)CC2)c2c1C[C@H]1C[C@@H]21` [Example 55, 1-((2S,4S)-4-((3-chloropyridin-2-yl)oxy)-2-methylpiperidin-1-yl)-2-((3bR,4aR)-3-(4-hydroxypiperidine-1-carbonyl)-3b,4,4a,5-tetrahydro-1H-cyclopropa[3,4]cyclopenta[1,2-c]pyrazol-1-yl)ethanone] yielded an EC50 of 20.8 nM.
Under `C[C@@H]1CN(C(=O)c2nn(CC(=O)N3CCC(Oc4ccc5c(c4)CCC5)CC3)c3c2CCC3)C[C@H](C)O1` [Example 94, 1-{4-[(2,3-dihydro-1H-inden-5-yl)oxy]piperidin-1-yl}-2-{3-[(2R,6S)-2,6-dimethylmorpholine-4-carbonyl]-5,6-dihydrocyclopenta[c]pyrazol-1(4H)-yl}ethan-1-one] stands 4.36 nM.
For `C[C@@H]1CN(C(=O)c2nn(CC(=O)N3CCC(Oc4cccc(C(F)(F)F)c4F)CC3)c3c2CCC3)C[C@H](C)O1` [Example 163, 2-{3-[(2R,6S)-2,6-dimethylmorpholine-4-carbonyl]-5,6-dihydrocyclopenta[c]pyrazol-1(4H)-yl}-1-{4-[2-fluoro-3-(trifluoromethyl)phenoxy]piperidin-1-yl}ethan-1-one] the value was 319 nM; for `O=C(Cn1nc(C(=O)N2CC[C@@H](O)[C@@H](F)C2)c2c1CCCC2)N1CCC(Oc2ccccc2Cl)CC1` [Example 9, 1-(4-(2-chlorophenoxy)piperidin-1-yl)-2-(3-((3S,4R)-3-fluoro-4-hydroxypiperidine-1-carbonyl)-4,5,6,7-tetrahydro-1H-indazol-1-yl)ethanone], 8.09 nM.
`C[C@@H]1CN(C(=O)c2nn(CC(=O)N3CCC(Cc4ccccc4)CC3)c3c2CCC3)C[C@H](C)O1` [Example 119, 1-(4-benzylpiperidin-1-yl)-2-{3-[(2R,6S)-2,6-dimethylmorpholine-4-carbonyl]-5,6-dihydrocyclopenta[c]pyrazol-1(4H)-yl}ethan-1-one] yielded an EC50 of 39.4 nM.
`C[C@@H]1CN(C(=O)c2nn(CC(=O)N3CCC(Oc4ccccc4)CC3)c3c2CCC3)C[C@H](C)O1` [Example 103, 2-{3-[(2R,6S)-2,6-dimethylmorpholine-4-carbonyl]-5,6-dihydrocyclopenta[c]pyrazol-1(4H)-yl}-1-(4-phenoxypiperidin-1-yl)ethan-1-one] registered an EC50 of 25.8 nM.
`C[C@H]1C[C@H](Oc2ncccc2C(F)(F)F)CCN1C(=O)Cn1nc(C(=O)N2CCC(OCCO)CC2)c2c1C[C@H]1C[C@@H]21` [Example 60, 2-((3bR,4aR)-3-(4-(2-hydroxyethoxy)piperidine-1-carbonyl)-3b,4,4a,5-tetrahydro-1H-cyclopropa[3,4]cyclopenta[1,2-c]pyrazol-1-yl)-1-((2S,4R)-2-methyl-4-((3-(trifluoromethyl)pyridin-2-yl)oxy)piperidin-1-yl)ethanone]: the EC50 turned out to be 63.6 nM.
For `C[C@@H]1CN(C(=O)c2nn(CC(=O)N3CCC(Oc4cccc(Cl)c4F)CC3)c3c2CCC3)C[C@H](C)O1` [Example 139, 1-[4-(3-chloro-2-fluorophenoxy)piperidin-1-yl]-2-{3-[(2R,6S)-2,6-dimethylmorpholine-4-carbonyl]-5,6-dihydrocyclopenta[c]pyrazol-1(4H)-yl}ethan-1-one] the value was 9.69 nM; for `Cc1ccccc1OC1CN(C(=O)Cn2nc(C(=O)N3C[C@@H](C)O[C@@H](C)C3)c3c2CCC3)C1` [Example 114, 2-{3-[(2R,6S)-2,6-dimethylmorpholine-4-carbonyl]-5,6-dihydrocyclopenta[c]pyrazol-1(4H)-yl}-1-[3-(2-methylphenoxy)azetidin-1-yl]ethan-1-one], 292 nM; for `Cc1cc(F)ccc1OC1CCN(C(=O)Cn2nc(C(=O)N3CCC(F)(CO)CC3)c3c2CCCCC3)CC1` [Example 83, 2-[3-[4-fluoro-4-(hydroxymethyl)piperidine-1-carbonyl]-5,6,7,8-tetrahydro-4H-cyclohepta[c]pyrazol-1-yl]-1-[4-(4-fluoro-2-methyl-phenoxy)-1-piperidyl]ethanone], 11.9 nM.
For `Cc1c(Cl)cccc1OC1CCN(C(=O)Cn2nc(C(=O)N3C[C@@H](C)O[C@@H](C)C3)c3c2CCC3)CC1` [Example 134, 1-[4-(3-chloro-2-methylphenoxy)piperidin-1-yl]-2-{3-[(2R,6S)-2,6-dimethylmorpholine-4-carbonyl]-5,6-dihydrocyclopenta[c]pyrazol-1(4H)-yl}ethan-1-one] the value was 6.9 nM; for `CCOC(=O)c1nn(CC(=O)N2CCC(Oc3ccccc3C(F)(F)F)CC2)c2c1CCCC2` [Example 59, ethyl 1-(2-oxo-2-(4-(2-(trifluoromethyl)phenoxy)piperidin-1-yl)ethyl)-4,5,6,7-tetrahydro-1H-indazole-3-carboxylate], 51.4 nM.
